Target: CXCR4 (Homo sapiens, UniProt P61073)
Assay: Competition screening using the native CXCR4 ligand SDF-1
Assay type: binding
Details: competition with SDF-1

Protein sequences, listed by entry. Tags and fused reporters are not part of them.
UniProt P61073, whole entry: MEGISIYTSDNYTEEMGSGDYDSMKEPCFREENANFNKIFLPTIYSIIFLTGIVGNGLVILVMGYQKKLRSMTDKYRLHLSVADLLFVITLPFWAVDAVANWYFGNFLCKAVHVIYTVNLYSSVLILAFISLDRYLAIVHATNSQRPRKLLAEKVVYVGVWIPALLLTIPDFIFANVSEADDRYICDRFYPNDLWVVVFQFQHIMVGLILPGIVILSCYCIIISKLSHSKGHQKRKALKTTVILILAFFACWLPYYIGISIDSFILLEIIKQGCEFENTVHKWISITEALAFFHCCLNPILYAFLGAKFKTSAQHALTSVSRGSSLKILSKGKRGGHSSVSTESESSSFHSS

Structure (SMILES): c1ccc(NCc2cccc(CNc3ccccn3)c2)nc1 [drawing 207]
- IC50: < 10 nM

Source: US8008312B2, “CXCR4 antagonists for the treatment of HIV infection” (Emory University, priority 2005, dated 2011)
